Tests used:
[1] = target: T1, Apelin receptor (Homo sapiens, UniProt P35414)
T1 sequence (P35414 whole entry): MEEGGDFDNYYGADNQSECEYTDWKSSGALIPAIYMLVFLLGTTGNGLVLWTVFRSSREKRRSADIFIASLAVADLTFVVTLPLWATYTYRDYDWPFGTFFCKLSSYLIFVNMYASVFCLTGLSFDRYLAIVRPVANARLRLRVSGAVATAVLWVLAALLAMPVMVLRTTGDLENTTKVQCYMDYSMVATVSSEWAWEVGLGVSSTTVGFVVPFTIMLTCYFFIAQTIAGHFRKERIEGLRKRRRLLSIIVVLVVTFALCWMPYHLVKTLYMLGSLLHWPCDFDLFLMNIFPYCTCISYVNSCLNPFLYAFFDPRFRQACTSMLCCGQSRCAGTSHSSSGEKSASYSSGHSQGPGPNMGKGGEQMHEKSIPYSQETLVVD

[2] = target: T1, Apelin receptor; remark: listed apart in the source

**Q.** What does the source list for `COc1cccc(OC)c1-c1cc(C(=O)N[C@@H](CCC2CCCCC2)CC(=O)O)nn1C1CCCCC1`?
**A.** EC50 [1]: 0.518 µM; EC50 [2]: 3.26 µM
